Reference: ChEMBL document CHEMBL3393025, “Discovery of dual leucine zipper kinase (DLK, MAP3K12) inhibitors with activity in neurodegeneration models” (J Med Chem, 2015)

Experiments:
[1] = molecular target: T1, Mitogen-activated protein kinase kinase kinase 12 (Homo sapiens, UniProt Q12852); assay: Inhibition of DLK (unknown origin)
T1 sequence (Q12852 whole entry): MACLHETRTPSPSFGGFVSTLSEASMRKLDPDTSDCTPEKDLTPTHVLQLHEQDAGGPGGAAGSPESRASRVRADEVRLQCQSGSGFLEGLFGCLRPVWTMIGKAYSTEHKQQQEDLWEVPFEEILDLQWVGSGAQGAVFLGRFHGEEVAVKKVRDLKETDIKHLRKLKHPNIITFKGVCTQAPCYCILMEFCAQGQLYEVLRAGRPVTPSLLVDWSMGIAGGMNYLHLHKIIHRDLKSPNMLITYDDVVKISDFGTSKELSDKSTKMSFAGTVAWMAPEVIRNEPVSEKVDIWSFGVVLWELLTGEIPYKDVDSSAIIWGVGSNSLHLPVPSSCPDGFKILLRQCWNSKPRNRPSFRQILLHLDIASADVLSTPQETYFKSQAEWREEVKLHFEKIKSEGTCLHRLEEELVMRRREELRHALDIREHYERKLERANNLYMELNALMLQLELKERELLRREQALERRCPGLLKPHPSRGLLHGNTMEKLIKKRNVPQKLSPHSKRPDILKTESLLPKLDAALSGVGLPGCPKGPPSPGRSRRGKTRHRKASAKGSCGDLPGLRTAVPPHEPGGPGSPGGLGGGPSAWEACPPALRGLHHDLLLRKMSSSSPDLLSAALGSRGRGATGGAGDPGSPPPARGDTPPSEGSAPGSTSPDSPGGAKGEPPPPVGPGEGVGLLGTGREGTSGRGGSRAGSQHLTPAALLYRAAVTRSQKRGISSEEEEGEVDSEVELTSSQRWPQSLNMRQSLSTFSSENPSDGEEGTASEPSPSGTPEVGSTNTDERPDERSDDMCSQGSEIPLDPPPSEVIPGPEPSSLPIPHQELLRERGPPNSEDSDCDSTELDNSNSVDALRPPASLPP

[2] = molecular target: T1, Mitogen-activated protein kinase kinase kinase 12; assay: Inhibition of human DLK transfected in HEK293 cells assessed as JNK phosphorylation after 5.5 hrs by Hoechst-33342 staining-based assay; assay type: cell-based

Ki [1]: 2 nM
IC50 [2]: 410 nM
Structure (SMILES): FC1(F)CCN(c2nc(Nc3cc(C(F)(F)F)ccn3)cc(C3CCNCC3)n2)C1
